Calls of active or inactive are those of the source. No cut-off for these calls is given here.
Legend:
T1R1/T1R3 (Homo sapiens) [1] = target: T1, T1R1/T1R3 (Homo sapiens) (UniProt Q7RTX0+Q7RTX1); test: Activity at human T1R1/T1R3 expressed in HEK293T cells co-expressing Galpha15 assessed as induction of left-ward shift of glutamate dose response curve at 5 mM relative to untreated control; assay type: cell-based; details: HEK-293T
T1R1/T1R3 (Homo sapiens) [2] = target: T1, T1R1/T1R3 (Homo sapiens); test: Activity at human T1R1/T1R3 expressed in HEK293T cells co-expressing Galpha15 assessed as induction of left-ward shift of glutamate/IMP dose response curve at 5 mM relative to untreated control; assay type: cell-based; details: HEK-293T

Sequences of proteins named here, by UniProt entry; tags and fusion partners are left off. A change or cut given only in a name is not applied to a line headed by its entry.
UniProt Q7RTX0: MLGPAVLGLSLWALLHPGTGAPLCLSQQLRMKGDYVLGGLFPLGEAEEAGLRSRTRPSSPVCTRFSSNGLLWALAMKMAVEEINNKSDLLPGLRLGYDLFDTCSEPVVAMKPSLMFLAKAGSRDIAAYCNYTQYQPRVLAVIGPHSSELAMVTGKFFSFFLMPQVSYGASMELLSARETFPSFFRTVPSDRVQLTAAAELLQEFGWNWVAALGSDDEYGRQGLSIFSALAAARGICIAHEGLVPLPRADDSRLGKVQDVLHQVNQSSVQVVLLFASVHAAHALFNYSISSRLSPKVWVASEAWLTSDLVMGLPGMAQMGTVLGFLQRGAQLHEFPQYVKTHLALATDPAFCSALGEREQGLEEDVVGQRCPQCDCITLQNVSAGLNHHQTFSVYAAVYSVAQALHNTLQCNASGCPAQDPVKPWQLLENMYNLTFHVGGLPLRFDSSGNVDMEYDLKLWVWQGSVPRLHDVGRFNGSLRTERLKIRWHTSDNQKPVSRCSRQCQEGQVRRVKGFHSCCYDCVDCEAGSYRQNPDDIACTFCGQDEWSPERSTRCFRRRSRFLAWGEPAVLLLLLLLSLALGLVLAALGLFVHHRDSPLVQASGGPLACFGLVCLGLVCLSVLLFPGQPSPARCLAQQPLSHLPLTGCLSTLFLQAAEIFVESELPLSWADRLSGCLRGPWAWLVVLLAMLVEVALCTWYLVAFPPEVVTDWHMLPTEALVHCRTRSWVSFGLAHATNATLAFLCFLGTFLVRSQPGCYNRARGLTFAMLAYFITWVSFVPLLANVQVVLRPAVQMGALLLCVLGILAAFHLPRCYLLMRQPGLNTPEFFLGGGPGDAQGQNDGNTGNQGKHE
UniProt Q7RTX1: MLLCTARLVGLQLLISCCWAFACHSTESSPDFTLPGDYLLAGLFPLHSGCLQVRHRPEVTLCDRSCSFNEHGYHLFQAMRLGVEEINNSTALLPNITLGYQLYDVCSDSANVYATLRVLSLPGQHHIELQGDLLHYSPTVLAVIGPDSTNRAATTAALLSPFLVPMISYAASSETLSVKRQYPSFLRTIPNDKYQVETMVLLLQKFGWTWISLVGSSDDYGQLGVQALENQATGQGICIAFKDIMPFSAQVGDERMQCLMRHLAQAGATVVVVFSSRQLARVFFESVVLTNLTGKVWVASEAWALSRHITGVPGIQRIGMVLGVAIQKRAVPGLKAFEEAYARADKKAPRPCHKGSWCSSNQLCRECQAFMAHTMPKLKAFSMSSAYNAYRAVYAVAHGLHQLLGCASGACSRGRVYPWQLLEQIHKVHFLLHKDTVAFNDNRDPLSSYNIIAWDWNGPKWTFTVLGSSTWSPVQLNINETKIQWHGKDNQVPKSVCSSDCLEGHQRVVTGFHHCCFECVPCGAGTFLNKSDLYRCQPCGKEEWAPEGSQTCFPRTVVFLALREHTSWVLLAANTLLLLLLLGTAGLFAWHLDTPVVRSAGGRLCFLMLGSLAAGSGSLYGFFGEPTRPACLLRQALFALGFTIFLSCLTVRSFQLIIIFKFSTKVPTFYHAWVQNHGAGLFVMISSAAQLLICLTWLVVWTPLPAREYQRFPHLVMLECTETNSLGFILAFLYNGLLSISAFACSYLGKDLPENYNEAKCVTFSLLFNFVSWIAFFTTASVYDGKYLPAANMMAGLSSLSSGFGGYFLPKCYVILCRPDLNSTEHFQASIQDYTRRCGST

C=C1C[C@@]23CC[C@H]4[C@@](C)(CCC[C@@]4(C)C(=O)O[C@@H]4O[C@H](CO)[C@@H](O)[C@H](O)[C@H]4O)[C@@H]2CC[C@]1(O[C@@H]1O[C@H](CO)[C@@H](O)[C@H](O)[C@H]1O[C@@H]1O[C@H](CO)[C@@H](O)[C@H](O)[C@H]1O)C3 was tested, and the Activity (T1R1/T1R3 (Homo sapiens) [1]) was “inactive” and the Activity (T1R1/T1R3 (Homo sapiens) [2]) was “inactive”.

Reference: ChEMBL document CHEMBL3714709, “T1R hetero-oligomeric taste receptors, cell lines that express said receptors, and taste compounds” (2008)
